Reference: ChEMBL document CHEMBL4020848, “Antibacterial Activity Affected by the Conformational Flexibility in Glycine-Lysine Based α-Helical Antimicrobial Peptides” (J Med Chem, 2018)
Converted amounts (≈) assume the structure as drawn.

Test system: Escherichia coli
Assay: Antibacterial activity against Escherichia coli ATCC 25922 after 18 hrs by microdilution method
Assay type: functional
Settings: ATCC 25922, 18 h

## CC[C@H](C)[C@H](NC(=O)CN)C(=O)NCC(=O)N[C@@H](C)C(=O)N[C@H](C(=O)N[C@@H](CC(C)C)C(=O)N[C@@H](CCCCN)C(=O)N[C@H](C(=O)N[C@@H](CC(C)C)C(=O)N[C@H](C(=O)N[C@H](C(=O)NCC(=O)N[C@@H](CC(C)C)C(=O)N1CCC[C@H]1C(=O)N[C@@H](C)C(=O)N[C@@H](CC(C)C)C(=O)N[C@H](C(=O)N[C@@H](CO)C(=O)N[C@@H](Cc1c[nH]c2ccccc12)C(=O)N[C@H](C(=O)N[C@@H](CCCCN)C(=O)N[C@@H](CCCNC(=N)N)C(=O)N[C@@H](CCCCN)C(=O)N[C@@H](CCCNC(=N)N)C(=O)N[C@@H](CCC(N)=O)C(=O)N[C@@H](CCC(N)=O)C(N)=O)[C@@H](C)CC)[C@@H](C)CC)[C@@H](C)O)[C@@H](C)O)C(C)C)C(C)C [MELITTIN]
  MIC: 10 µM (≈ 28.5 µg/mL)
